# In PubChem BioAssay AID504706 (National Center for Advancing Translational Sciences (NCATS), 2011):
# Several values for one entry are separate records, joined by “and”; a condition that tells them apart may be missing. Equal entries are not always repeated. The list shows a part of the results, in another mix than the full data. Records with an inconclusive call do not appear. Activity calls are given as the source filed them. Calls come from the whole dose curve; as a rule, active = well fitted activation curve with a large enough effect; inconclusive = small, poorly fitted or top-dose-only effect; inactive = no such curve, though single readings can be large or run the other way.
# Experiment: qHTS assay for re-activators of p53 using a Luc reporter; note: % of control where 0% means no effect; nearly all actives have a fitted effect of over 45% in size
# Conditions: H1299 p53-A138V BP100-luciferase reporter, luminescence, 24 h; at 92.2 µM (top of the series)
# From the text: The p53 tumor suppressor plays a key role in suppression of tumorigenesis and in human carcinogenesis. It is frequently found inactivated in human cancers, mainly by point mutation. These point mutations are found in a wide variety of human cancers and a majority of them affect the DNA binding domain of the protein. The point mutations either alter native p53 conformation or abolish DNA contact. Additionally, cancer cells with p53 mutations are more resistant to chemo-radiation therapies. In order to find activators to reactivate this important protein, a cell-based screen for p53-dependent luciferase-reporter expression was developed. A p53-null H1299 lung cancer cell line was stably co-transfected with a temperature sensitive p53 mutant, p53-A138V, and a p53-responsive BP100-luciferase reporter. This cell model has previously been characterized in a gene chip profiling experiment for p53 activation. By lowering the culture temperature from 37 deg C (mutant p53 conformation) to 32 deg C (w.t. p53 conformation), a 30-60 fold increase in activation of luciferase activity is observed. At assay temperate, 37 deg C, basal reporter expression is very low and after the addition of detection reagent, a luminescent read-out is carried out. NIH Chemical Genomics Center [NCGC] NIH Molecular Libraries Probe Production Centers Network [MLPCN] MLPCN Grant: DA031088-01A1 Assay Provider (PI): Yi Sung, University of Michigan at Ann Arbor
# 5ul of 1000 cells per well are dispensed in all wells except column 4, into white solid-bottom TC-treated Kalypsys plates. The cells are kept in Opti-MEM and supplemented with 10% FBS and dispensed using a Multidrop (Thermo). Then using the Kalypsys pin-tool, 23nl of compounds are pinned. The compounds are starting concentration at 10mM, with 1:5 dilution, 4 points, and the control compound nocodazole is pinned in column 1 at 25mM, 1:3 dilution, in duplicate, 25mM nocodazole is pinned in column 2. Please note, all concentrations are working concentrations. 5ul of 1pM purified luciferase enzyme is dispensed using the Kalypsys dispenser in column 4. Plates are incubated for 24 hrs at 37 deg C, 5% CO2, and 95% humidity. Then 4ul of the detection reagent Amplite (ABD Bioquest) is added using the Kalypsys dispenser. Plates are incubated for 10 min at ambient room temperature and are then read on the ViewLux (Perkin Elmer) using a clear filter for a luminescent read-out.
row,SMILES,"activity change, positive = activation"
1,O=[N+]([O-])c1cccc2n[nH]nc12,inactive: 4.93%
2,CC(=O)N1C2C3N(C(C)=O)C1C1N(C(C)=O)C(C(N1C(C)=O)N3C(C)=O)N2C(C)=O,inactive: -4.54%
3,Cc1ccc(NP(=O)(Oc2ccccc2)Oc2ccccc2)nc1,inactive: -3.8%
4,CCc1nc2c(n1)c1c(non1O)c1c2no[n+]1[O-],inactive: -29.3%
5,O=[N+]([O-])c1cc([N+](=O)[O-])c(CCNc2ccccc2)c([N+](=O)[O-])c1,inactive: 7.48%
6,Nc1cc(N)c2nonc2c1[N+](=O)[O-],inactive: -3.89%
7,CC(C)CC(=O)NC(Sc1ccc(Cl)cc1)C(Cl)(Cl)Cl (stereo not given),inactive: -0.889%
8,Oc1ccccc1CNc1ccccn1,inactive: 2.69%
9,O=C(NC(Sc1ccncn1)C(Cl)(Cl)Cl)c1ccccc1 (stereo not given),inactive: -0.0764%
10,Cc1c2non([O-])c-2c(C)[n+](=O)[n+]1[O-],inactive: -19.9%
11,NC(=O)c1cc([N+](=O)[O-])cc([N+](=O)[O-])c1N,inactive: 3.23%
12,Cc1ccc(N/C(=N/P(=O)(N2CCOCC2)N2CCOCC2)N2CCOCC2)cc1,inactive: -10.8%
13,COc1ccccc1OP(=O)(Nc1ccc(C)cn1)Oc1ccccc1OC,inactive: 1.78%
14,Cc1ccc(OP(=O)(Nc2nccs2)Oc2ccc(C)cc2)cc1,inactive: -0.75%
15,CN1CCCC(OC(=O)C(c2ccccc2)c2ccccc2)C1 (stereo not given),inactive: -10.5%
16,Clc1ccc(Cl)c(NC2=NCC(CBr)S2)c1 (stereo not given),inactive: -4.73%
17,O=[N+]([O-])c1cc([N+](=O)[O-])c(CCN2CCOCC2)c([N+](=O)[O-])c1,inactive: 1.97%
18,CCN(N=Nc1nonc1N)c1nonc1N,inactive: -6.76%
19,Nc1cccc2ccc([As](=O)(O)O)cc12,inactive: -7.82%
20,CC(=O)Nc1ccc([As](=O)(O)O)cc1,inactive: 3.25%
21,O=C(O)c1ccccc1[As](=O)(O)O,inactive: 1.29%
22,O=P(Nc1nc2ccc(Cl)cc2s1)(c1ccccc1)c1ccccc1,inactive: 3.31%
23,Cc1cc(SC(NC(=O)c2ccc(F)cc2)C(Cl)(Cl)Cl)ncn1 (stereo not given),inactive: -30.1%
24,CCOP(=O)(Nc1ccccc1)OCC,inactive: -5.22% and inactive: -5.39%
25,Cc1ccc(NP(=O)(Oc2ccccc2F)Oc2ccccc2F)nc1,inactive: 0.13%

row,SMILES,"activity change, positive = activation"
1,CC(C)c1ccc(OP(=O)(Nc2ccccn2)Oc2ccccc2F)cc1 (stereo not given),inactive: -1.51%
2,CC(C)NC(=O)NP(=O)(Oc1ccccc1)Oc1ccccc1,inactive: 3.05%
3,CCN(CC)C(=S)SC(NC=O)C(Cl)(Cl)Cl (stereo not given),inactive: 4.8%
4,O=[N+]([O-])c1cc([N+](=O)[O-])c(-c2ccn[nH]2)s1,inactive: -15.1%
5,C[As](=O)(O)c1cccc(C(=O)O)c1,inactive: 4.71%
6,O=[As](O)(c1ccc(O)cc1)c1ccccc1O,inactive: -3.39%
7,COc1cc(C(=O)NCC2(N3CCOCC3)CCCCC2)ccc1OCC(C)C,inactive: 1.87%
8,Cc1ccc(OP(=O)(Nc2ccc([N+](=O)[O-])cn2)Oc2ccc(C)cc2)cc1,inactive: 2.64%
9,COc1ccc(N/C(=N/P(=O)(N2CCOCC2)N2CCOCC2)N2CCOCC2)cc1,inactive: -1.52%
10,O=C(OC1CN2CCC1CC2)C12CC3CC(CC(C3)C1)C2 (stereo not given),inactive: 1.52%
11,Cc1cc(=O)[nH]c(N[N+](=O)[O-])n1,inactive: 0.119%
12,Cc1c2c(nc3ccccc13)SC(C(Cl)Cl)C2 (stereo not given),inactive: 3.5%
13,COc1ccc2nc(NP(=O)(c3ccccc3)c3ccccc3)sc2c1,inactive: -6.23%
14,COc1cc(I)ccc1[As](=O)(O)O,inactive: -2.85%
15,CCOC(=O)c1ccc(NC(=O)C(C)(CCl)SC)cc1 (stereo not given),inactive: 16.4%
16,O=C(OC1CN2CCC1CC2)c1cccc([N+](=O)[O-])c1 (stereo not given),inactive: 4.77%
17,COP1(=S)c2c(C)nn(CCC#N)c2N=C(c2ccc(F)cc2)N1C (stereo not given),inactive: 12.7%
18,O=C(COc1ccccc1)OC1CN2CCC1CC2 (stereo not given),inactive: 0.494%
19,O=C(Nc1ccncc1[N+](=O)[O-])c1ccc([N+](=O)[O-])cc1[N+](=O)[O-],inactive: 15.5%
20,CCOC(=O)Nc1cccc([As](=O)(O)O)c1,inactive: 1.04%
21,O=[N+]([O-])c1ccc(Nc2ccc(Oc3ccc([N+](=O)[O-])cc3[N+](=O)[O-])cc2)c([N+](=O)[O-])c1,inactive: -3.03%
22,O=P(Nc1ccccn1)(c1cccc2ccccc12)c1cccc2ccccc12,inactive: -5.36%
23,Cc1cc(SC(NC=O)C(Cl)(Cl)Cl)ncn1 (stereo not given),inactive: -0.143%
24,CCOC(=O)Nc1ccc([As](=O)(O)O)c(O)c1,inactive: 0.744%
25,CCCCOc1ccc(C(=O)NCC2(N3CCCCC3)CCCCC2)cc1OC,inactive: -2.66%
